Test results: patent publication US5468499A, “Liposomes containing the salt of phosphoramide mustard and related compounds” (Ohio State University, priority 1993, dated 1995)
Values joined by “and” are separate entries in the source; they are usually repeats but may differ in a detail not shown here. Identical values can stand only once.

Test system: murine leukemic L1210 cells
Test: Cytotoxicity of free and liposome-entrapped isophosphoramide mustard to L1210 cells
Settings: 72 hours

O=P(O)(NCCCl)NCCCl
L1210 cell growth versus concentration (as free IPM concentration increased): the cell concentration decreased | % of control (free IPM 5 μM): 0.6270 % of control | average (of cell count readings) (free IPM 5 μM): 13475 and 12963 and 13696 | cell #/ml (free IPM 5 μM): 535133 #/ml | % of control (free IPM 10 μM): 0.3391 % of control | average (of cell count readings) (free IPM 10 μM): 7138 and 7061 and 7507 | cell #/ml (free IPM 10 μM): 289422 #/ml | % of control (free IPM 25 μM): 0.2491 % of control | average (of cell count readings) (free IPM 25 μM): 5078 and 5522 and 5345 | cell #/ml (free IPM 25 μM): 212609 #/ml | % of control (free IPM 50 μM): 0.1750 % of control | average (of cell count readings) (free IPM 50 μM): 3598 and 3705 and 3896 | cell #/ml (free IPM 50 μM): 149320 #/ml | % of control (free IPM 100 μM): 0.1508 % of control | average (of cell count readings) (free IPM 100 μM): 3001 and 3799 and 2854 | cell #/ml (free IPM 100 μM): 128720 #/ml
